pIC50: −log10 of the molar value.

Amino acid sequences for entries named in this document (tags omitted). Residues count along the entry.
UniProt Q14416, 19-872: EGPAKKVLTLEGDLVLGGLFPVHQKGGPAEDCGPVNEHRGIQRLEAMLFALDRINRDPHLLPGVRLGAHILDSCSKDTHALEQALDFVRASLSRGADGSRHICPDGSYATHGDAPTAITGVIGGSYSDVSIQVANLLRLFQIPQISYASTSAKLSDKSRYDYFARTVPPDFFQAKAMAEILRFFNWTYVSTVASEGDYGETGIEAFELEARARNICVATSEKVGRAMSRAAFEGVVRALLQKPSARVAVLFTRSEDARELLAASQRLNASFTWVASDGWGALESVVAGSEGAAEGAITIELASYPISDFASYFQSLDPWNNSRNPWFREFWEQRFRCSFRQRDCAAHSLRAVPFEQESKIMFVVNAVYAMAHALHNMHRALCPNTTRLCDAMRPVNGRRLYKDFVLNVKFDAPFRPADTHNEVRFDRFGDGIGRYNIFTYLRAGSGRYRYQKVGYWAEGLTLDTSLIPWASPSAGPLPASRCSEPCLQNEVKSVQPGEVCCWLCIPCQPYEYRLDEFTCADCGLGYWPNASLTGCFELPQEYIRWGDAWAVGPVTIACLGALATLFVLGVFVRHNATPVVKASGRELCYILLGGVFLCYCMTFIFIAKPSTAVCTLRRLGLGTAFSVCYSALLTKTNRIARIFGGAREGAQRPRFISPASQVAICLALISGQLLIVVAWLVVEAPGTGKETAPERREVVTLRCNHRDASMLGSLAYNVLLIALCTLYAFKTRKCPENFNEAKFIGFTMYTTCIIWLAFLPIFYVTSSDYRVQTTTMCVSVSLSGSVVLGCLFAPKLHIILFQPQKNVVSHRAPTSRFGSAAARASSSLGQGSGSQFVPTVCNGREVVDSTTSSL

This is an account of results in patent US9278960B2, “Quinoline carboxamide and quinoline carbonitrile derivatives as mGluR2-negative allosteric modulators, compositions, and their use” (Merck Sharp & Dohme Corp., priority 2011, dated 2016).

The target in the experiment is human mGluR2 (Homo sapiens (Human), UniProt Q14416). The experiment in a line: FLIPR Ca2+ mobilization antagonist assay in CHO dhfr- cells expressing recombinant human mGluR2 and Gα16. To be noted: antagonist response after addition of 2,500 nM glutamate, Fluo-4 AM, FLIPR384. It counts as cell-based. For orientation: Calcium assays in cells follow changes in intracellular calcium, usually with a dye or a luminescent sensor.

In general, pIC50 refers to −log10 of the IC50, conventionally taken in molar units. For the compound `NC(=O)c1cc(-c2cnn(C(F)F)c2)c2ccc(CN3CCOC(C(F)(F)F)C3)cc2n1` (stereo not shown) [Example 4-84, 4-[1-(difluoromethyl)-1H-pyrazol-4-yl]-7-{[2-(trifluoromethyl)morpholin-4-yl]methyl}quinoline-2-carboxamide], the pIC50 was 7.96.

Take `NC(=O)c1cc(-c2ccc(Br)cc2)c2ccccc2n1` [Example 1-15, 4-(4-bromophenyl)quinoline-2-carboxamide]: the pIC50 was 6.77.

Turning to `C[C@@H]1COC[C@@H](C)N1Cc1ccc2c(-c3cnn(C)c3)cc(C(N)=O)nc2c1` [Example 4-63, 7-{[(3R,5R)-3,5-dimethylmorpholin-4-yl]methyl}-4-(1-methyl-1H-pyrazol-4-yl)quinoline-2-carboxamide], the pIC50 was 7.34.

With `COc1ccc(-c2cc(C(N)=O)nc3cc(CCc4cnc(C)nc4)ccc23)cc1OC` [Example 8-55, 4-(3,4-dimethoxyphenyl)-7-[2-(2-methylpyrimidin-5-yl)ethyl]quinoline-2-carboxamide], the pIC50 is 7.02.

Take `COc1ccc(-c2cc(C(N)=O)nc3ccccc23)c(F)c1` [Example 1-20, 4-(2-fluoro-4-methoxyphenyl)quino-line-2-carboxamide]: the pIC50 is 6.86.

Turning to `Cn1cc(-c2cc(C(N)=O)nc3c(F)c(Cc4ccc(C(F)(F)F)nc4)ccc23)cn1` [Example 7-31, 8-fluoro-4-(1-methyl-1H-pyrazol-4-yl)-7-{[6-(trifluoromethyl)pyridin-3-yl]methyl}quinoline-2-carboxamide], the negative logarithm of the IC50 (pIC50) is 7.55.

As to `Cn1cc(-c2cc(C(N)=O)nc3cc(CN4CCCCC4CF)ccc23)cn1` (stereo not shown) [Example 4-131, 7-{[2-(fluoromethyl)piper-idin-1-yl]methyl}-4-(1-methyl-1H-pyrazol-4-yl)quinoline-2-carboxamide], the pIC50 is 6.95.

As for `CCC(O)(c1cn(Cc2ccc3c(-c4ccc(OC)cc4F)cc(C(N)=O)nc3c2)cn1)C(F)(F)F` (stereo not shown) [Example 3-48, 4-(2-fluoro-4-methoxyphenyl)-7-({4-[1-hydroxy-1-(trifluoromethyl)propyl]-1H-imidazol-1-yl}methyl)quinoline-2-carboxamide], the pIC50 is 7.80.

For the compound `NC(=O)c1cc(-c2ccc(F)cc2)c2ccc(CN3CC[C@@H](F)C3)cc2n1` [Example 4-26, 4-(4-fluorophenyl)-7-{[(3R)-3-fluoropyrrolidin-1-yl]methyl}quinoline-2-carboxamide], the pIC50 was 6.93.

For `NC(=O)c1cc(-c2ccc(F)cc2)c2ccc(CN3C(=O)CC4(CCCC4)C3=O)cc2n1` [Example 2-18, 7-[(1,3-dioxo-2-azaspiro[4.4]non-2-yl)methyl]-4-(4-fluorophenyl)quinoline-2-carboxamide], the pIC50 was 7.55.

On to `CC(C)c1ncc(-c2cc(C(N)=O)nc3cc(CN4CCOC(C(F)(F)F)C4)ccc23)s1` (stereo not shown) [Example 4-75, 4-[2-(1-methylethyl)-1,3-thiazol-5-yl]-7-{[2-(trifluoromethyl)morpholin-4-yl]methyl}quinoline-2-carboxamide], for which the pIC50 is 5.96.

Take `Cc1ccc2c(-c3ccccc3F)cc(C(N)=O)nc2c1` [Example 1-28, 4-(2-fluorophenyl)-7-methylquinoline-2-carboxamide]: the pIC50 is 6.41.

Turning to `COCC1CN(Cc2ccc3c(-c4cnn(C)c4)cc(C(N)=O)nc3c2)CCO1` (stereo not shown) [Example 4-58, 7-{[2-(methoxymethyl)morpholin-4-yl]methyl}-4-(1-methyl-1H-pyrazol-4-yl)quinoline-2-carboxamide], the pIC50 was 6.79.

In the case of `NC(=O)c1cc(-c2ccc(F)cc2)c2ccc(CN3CCCC3C(F)(F)F)cc2n1` (stereo not shown) [Example 4-27, 4-(4-fluorophenyl)-7-{[2-(trifluoromethyl)pyrrolidin-1-yl]methyl}quinoline-2-carboxamide], the pIC50 is 6.74.

Regarding `CC(Cc1cccnc1)c1ccc2c(-c3ccc(F)cc3)cc(C(N)=O)nc2c1` (stereo not shown) [Example 8-23, 4-(4-fluorophenyl)-7-(1-methyl-2-pyridin-3-ylethyl)quinoline-2-carboxamide], the pIC50 was 7.68.

For `NC(=O)c1cc(-c2ccc(F)cc2)c2ccc(CN3CCCC(n4cncn4)C3)cc2n1` (stereo not shown) [Example 4-48, 4-(4-fluorophenyl)-7-{[3-(1H-1,2,4-triazol-1-yl)piperidin-1-yl]methyl}quinoline-2-carboxamide], the pIC50 was 7.28.

In the case of `COc1cc(Cc2ccc3c(-c4ccc(F)cc4)cc(C(N)=O)nc3c2)ccn1` [Example 6-14, 4-(4-fluorophenyl)-7-[(2-methoxypyridin-4-yl)methyl] quinoline-2-carboxamide], the pIC50 was 7.74.

In the case of `Cn1cc(-c2cc(C(N)=O)nc3c(F)c(CN4CCO[C@@H](C(F)(F)F)C4)ccc23)cn1` [Example 7-20-A, (R)-8-Fluoro-4-(1-methyl-1H-pyrazol-4-yl)-7-((2-(trifluoromethyl)morpholino)methyl)quinoline-2-carboxamide], the pIC50 is 7.85.

Consider `Cn1cc(-c2cc(C(N)=O)nc3cc(CN4CCCC(C(F)(F)F)C4)ccc23)cn1` (stereo not shown) [Example 4-71, 4-(1-methyl-1H-pyrazol-4-yl)-7-{[3-(trifluoromethyl)piperidin-1-yl]methyl}quinoline-2-carboxamide], for which the pIC50 was 7.60.

On to `CCC(O)(c1cn(Cc2ccc3c(-c4ccc(OC)c(F)c4)cc(C(N)=O)nc3c2F)cn1)C(F)(F)F` (stereo not shown) [Example 7-28, 8-fluoro-4-(3-fluoro-4-methoxyphenyl)-7-({4-[1-hydroxy-1-(trifluoromethyl)propyl]-1H-imidazol-1-yl}methyl)quinoline-2-carboxamide], for which the pIC50 is 8.00.

As for `NC(=O)c1cc(-c2ccc(F)cc2)c2ccc(CN3CCNCC3C(F)(F)F)cc2n1` (stereo not shown) [Example 4-89, 4-(4-fluorophenyl)-7-{[2-(trifluoromethyl)piperazin-1-yl]methyl}quinoline-2-carboxamide], the negative-log IC50 (pIC50) is 6.63.

Take `NC(=O)c1cc(-c2ccc(F)cc2)c2ccc(CN3CCCC(C(F)(F)F)C3)cc2n1` (stereo not shown) [Example 4-44, 4-(4-fluorophenyl)-7-{[3-(trifluoromethyl)piperidin-1-yl]methyl}quinoline-2-carboxamide]: the pIC50 was 7.23.

Turning to `CCC(O)(c1cn(Cc2ccc3c(-c4ccc(OC)c(OC)c4)cc(C(N)=O)nc3c2)cn1)C(F)(F)F` (stereo not shown) [Example 3-46, 4-(3,4-dimethoxyphenyl)-7-({4-[1-hydroxy-1-(trifluoromethyl)propyl]-1H-imidazol-1-yl}methyl)quinoline-2-carboxamide], the pIC50 was 6.69.

`CC1CC=C(c2cc(C(N)=O)nc3cc(CN4C(=O)CCC4=O)ccc23)CC1` (stereo not shown) [Example 2-27, 7-[(2,5-dioxopyrrolidin-1-yl)methyl]-4-(4-methylcyclohex-1-en-1-yl)quinoline-2-carboxamide]: the pIC50 was 8.15.

For `Cc1ccc2c(-c3ccc(F)cc3)cc(C(N)=O)nc2c1` [Example 1-7, 4-(4-fluorophenyl)-7-methylquinoline-2-carboxamide], the pIC50 is 6.80.

Turning to `Cc1ccc(CC(C)c2ccc3c(-c4ccc(F)cc4)cc(C(N)=O)nc3c2)cn1` (stereo not shown) [Example 8-25, 4-(4-fluorophenyl)-7-[1-methyl-2-(6-methylpyridin-3-yl)ethyl]quinoline-2-carboxamide], the pIC50 is 7.68.

Turning to `Cn1cc(-c2cc(C(N)=O)nc3c(F)c(Cc4ccc(C5CC5)nc4)ccc23)cn1` [Example 7-37, 7-[(6-cyclopropylpyridin-3-yl)methyl]-8-fluoro-4-(1-methyl-1H-pyrazol-4-yl)quinoline-2-carboxamide], the pIC50 was 7.52.

On to `NC(=O)c1cc(-c2ccc(F)cc2)c2ccc(CN3CCOC(C(F)(F)F)C3)cc2n1` (stereo not shown) [Example 4-46, 4-(4-fluorophenyl)-7-{[2-(trifluoromethyl)morpholin-4-yl]methyl}quinoline-2-carboxamide], for which the pIC50 was 7.62.

In the case of `Cc1cn(C2CCN(Cc3ccc4c(-c5ccc(F)cc5)cc(C(N)=O)nc4c3)CC2)cn1` [Example 4-47, 4-(4-fluorophenyl)-7-{[4-(4-methyl-1H-imidazol-1-yl)piperidin-1-yl]methyl}quinoline-2-carboxamide], the pIC50 was 6.77.

Regarding `CC(C)(C)C1CN(Cc2ccc3c(-c4ccc(F)cc4)cc(C(N)=O)nc3c2)CCN1` (stereo not shown) [Example 4-108, 7-[(3-tert-butylpiperazin-1-yl)methyl]-4-(4-fluorophenyl)quino-line-2-carboxamide], the pIC50 was 6.79.

For the compound `Cc1ncc(-c2cc(C(N)=O)nc3cc(CN4CCOC(C(F)(F)F)C4)ccc23)s1` (stereo not shown) [Example 4-51, 4-(2-methyl-1,3-thiazol-5-yl)-7-{[2-(trifluoromethyl)morpholin-4-yl]methyl}quinoline-2-carboxamide], the pIC50 is 8.05.

With `NC(=O)c1cc(-c2cn[nH]c2)c2ccc(CN3CCO[C@@H](C(F)(F)F)C3)cc2n1` [Example 4-83, 4-(1H-pyrazol-4-yl)-7-{[(2R)-2-(trifluoromethyl)morpholin-4-yl]methyl}quinoline-2-carboxamide], the pIC50 was 6.29.

In the case of `Cn1cc(-c2cc(C(N)=O)nc3ccccc23)cn1` [Example 1-12, 4-(1-methyl-1H-pyrazol-4-yl)quinoline-2-carboxamide], the pIC50 was 6.17.

With `Cn1cc(-c2cc(C(N)=O)nc3c(F)c(CN4CCC(F)CC4)ccc23)cn1` [Example 7-27, 8-fluoro-7-[(4-fluoropiperidin-1-yl)methyl]-4-(1-methyl-1H-pyrazol-4-yl)quinoline-2-carboxamide], the pIC50 is 6.77.

As for `COc1ccc(-c2cc(C(N)=O)nc3cc(C(C)Cc4cnc(C#N)nc4)ccc23)cc1` (stereo not shown) [Example 8-34, 7-[2-(2-cyanopyrimidin-5-yl)-1-methylethyl]-4-(4-methoxyphenyl) quinoline-2-carboxamide], the pIC50 was 8.10.

Turning to `NC(=O)c1cc(-c2cnn(CF)c2)c2ccc(CN3CCO[C@@H](C(F)(F)F)C3)cc2n1` [Example 4-86, 4-[1-(fluoromethyl)-1H-pyrazol-4-yl]-7-{[(2R)-2-(trifluoromethyl)morpholin-4-yl]methyl}quinoline-2-carboxamide], the pIC50 is 8.05.

On to `Cn1cc(-c2cc(C(N)=O)nc3c(F)c(Cc4cnc(C5CC5)nc4)ccc23)cn1` [Example 7-33, 7-[(2-cyclopropylpyrimidin-5-yl)methyl]-8-fluoro-4-(1-methyl-1H-pyrazol-4-yl)quinoline-2-carboxamide], for which the pIC50 was 7.44.
